Assay results published in patent publication US6426356B1, “Imidazoethyl thiophenes” (Ortho-McNeil Pharmaceutical, Inc., priority 1998, dated 2002).

By UniProt entry, the sequences of proteins in these tests, tags left out.
UniProt P22909, whole entry: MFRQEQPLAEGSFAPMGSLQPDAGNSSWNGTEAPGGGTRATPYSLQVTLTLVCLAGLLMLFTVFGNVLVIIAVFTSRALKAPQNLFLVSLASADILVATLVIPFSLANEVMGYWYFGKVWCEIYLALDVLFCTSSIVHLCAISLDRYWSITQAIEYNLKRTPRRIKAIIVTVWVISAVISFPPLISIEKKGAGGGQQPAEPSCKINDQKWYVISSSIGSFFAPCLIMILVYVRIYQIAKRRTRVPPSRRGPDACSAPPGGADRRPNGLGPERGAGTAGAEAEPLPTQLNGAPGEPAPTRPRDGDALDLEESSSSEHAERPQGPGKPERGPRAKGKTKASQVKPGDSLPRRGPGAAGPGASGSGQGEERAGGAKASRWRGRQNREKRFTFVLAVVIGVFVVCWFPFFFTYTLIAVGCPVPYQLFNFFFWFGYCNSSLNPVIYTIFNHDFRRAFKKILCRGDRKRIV

Tests used:
[1] = system: mouse acetylcholine bromide-induced abdominal constriction; assay: Mouse acetylcholine bromide-induced abdominal constriction assay (MAIT); details: sc; % inhibition of abdominal constriction; dose not given
[2] = target: Alpha-2D Adrenergic Receptor (Rattus norvegicus, UniProt P22909); assay: Alpha-2D adrenergic receptor binding assay (3H-para-aminoclonidine, rat cortex synaptic membranes); details: read-out: α2D Ki

C(=Cc1c[nH]cn1)c1ccsc1
MAIT [1]: 13 sc | Ki [2]: 9.4 nM
